# Molecular target: purine nucleoside phosphorylase (PNP), E. Coli (Escherichia coli, UniProt P0ABP8)
# Sequences of proteins named here, by UniProt entry; tags and fusion partners are left off. Residues count along the entry.
# UniProt P0ABP8, 2-239: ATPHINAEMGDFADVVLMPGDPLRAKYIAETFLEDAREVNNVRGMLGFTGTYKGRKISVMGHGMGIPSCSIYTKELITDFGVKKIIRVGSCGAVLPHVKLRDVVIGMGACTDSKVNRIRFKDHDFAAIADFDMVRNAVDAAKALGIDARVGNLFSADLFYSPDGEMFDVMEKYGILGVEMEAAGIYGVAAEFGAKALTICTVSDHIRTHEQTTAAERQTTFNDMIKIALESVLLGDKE
# Assay: PNP inhibition, coupled xanthine oxidase method of Kalckar, inosine as substrate; E. Coli PNP
# Format: biochemical
# Conditions: 1 mM inorganic phosphate, 0.1 M HEPES pH 7.4, inosine 0.05-0.15 mM; read-out: Ki, PNP source E. Coli
compound,measurement,value
"Nc1nc(O)c2ncn(Cc3ccccc3C(F)C(F)(F)P(=O)(O)O)c2n1 (stereo not shown) [[2-[2-[(2-amino-1,6-dihydro-6-oxo-9H-purin-9-yl)methyl]-phenyl]-1,1,2-trifluoroethyl]phosphonic acid]",Ki,0.7 nM
